Chains of the proteins cited; added tags and fusions are not shown.
UniProt Q9Y5N1, whole entry: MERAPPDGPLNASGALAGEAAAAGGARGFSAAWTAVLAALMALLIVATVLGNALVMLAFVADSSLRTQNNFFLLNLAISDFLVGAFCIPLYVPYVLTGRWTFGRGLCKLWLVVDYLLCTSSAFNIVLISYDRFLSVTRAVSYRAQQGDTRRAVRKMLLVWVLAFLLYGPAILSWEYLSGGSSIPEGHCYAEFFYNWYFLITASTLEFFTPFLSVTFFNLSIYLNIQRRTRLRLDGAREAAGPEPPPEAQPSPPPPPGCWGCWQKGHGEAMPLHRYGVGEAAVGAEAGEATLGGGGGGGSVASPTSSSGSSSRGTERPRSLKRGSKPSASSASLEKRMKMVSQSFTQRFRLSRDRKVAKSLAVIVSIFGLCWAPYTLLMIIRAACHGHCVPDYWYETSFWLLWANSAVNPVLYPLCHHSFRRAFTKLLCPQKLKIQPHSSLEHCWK
UniProt P10635, whole entry: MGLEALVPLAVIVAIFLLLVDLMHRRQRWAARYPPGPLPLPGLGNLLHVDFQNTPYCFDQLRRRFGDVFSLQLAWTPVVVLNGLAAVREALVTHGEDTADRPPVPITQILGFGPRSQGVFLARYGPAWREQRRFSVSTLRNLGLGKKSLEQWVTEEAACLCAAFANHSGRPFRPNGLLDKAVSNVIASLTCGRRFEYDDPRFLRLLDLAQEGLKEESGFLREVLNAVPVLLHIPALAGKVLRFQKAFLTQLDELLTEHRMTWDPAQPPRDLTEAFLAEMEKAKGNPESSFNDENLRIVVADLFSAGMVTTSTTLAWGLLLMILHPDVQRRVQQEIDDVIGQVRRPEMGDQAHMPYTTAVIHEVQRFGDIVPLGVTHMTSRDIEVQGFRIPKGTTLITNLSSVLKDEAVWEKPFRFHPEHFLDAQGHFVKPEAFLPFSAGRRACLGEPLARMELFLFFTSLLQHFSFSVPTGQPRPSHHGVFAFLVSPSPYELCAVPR
UniProt P08684, whole entry: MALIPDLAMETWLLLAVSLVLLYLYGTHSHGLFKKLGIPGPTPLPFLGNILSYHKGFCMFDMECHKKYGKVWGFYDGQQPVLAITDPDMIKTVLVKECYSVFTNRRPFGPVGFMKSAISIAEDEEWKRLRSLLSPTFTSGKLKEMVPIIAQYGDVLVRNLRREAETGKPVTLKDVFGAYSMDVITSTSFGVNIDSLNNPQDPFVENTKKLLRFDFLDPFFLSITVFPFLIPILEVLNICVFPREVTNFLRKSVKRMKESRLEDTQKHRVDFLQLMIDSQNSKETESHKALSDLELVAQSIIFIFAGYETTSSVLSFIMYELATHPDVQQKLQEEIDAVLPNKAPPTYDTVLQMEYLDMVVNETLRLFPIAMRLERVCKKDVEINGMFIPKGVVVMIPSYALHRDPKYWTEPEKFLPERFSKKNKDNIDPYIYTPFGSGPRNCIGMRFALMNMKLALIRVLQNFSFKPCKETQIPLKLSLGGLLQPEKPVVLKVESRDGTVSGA

According to patent US8076329B2, “Histamine H3-receptor ligands and their therapeutic applications” (Bioprojet, priority 2005, dated 2011):

Key:
[1] = biological target: human histamine H3 receptors (Homo sapiens, UniProt Q9Y5N1); experiment: H3 binding ([125I]iodoproxyfan displacement on membranes); details: comparative examples: compounds of WO 00/06254; tested form: oxalate
[2] = biological target: CYP2D6 (Homo sapiens, UniProt P10635); experiment: Cytochrome inhibition, fluorometric microtiter plate assay; details: @ 1 μM; comparative examples: compounds of WO 00/06254; tested form: oxalate
[3] = biological target: CYP3A4 (Homo sapiens, UniProt P08684); experiment: as above; details: comparative examples: compounds of WO 00/06254, tested form: oxalate

Row | Compound | Ki [1] | CYP2D6 cytochrome inhibition [2] | CYP3A4 cytochrome inhibition ([3]; @ 1 μM) | IC50 ([3]; read-out: CYP3A4 cytochrome inhibition (IC50, concentrations for 50% inhibition))
1 | Clc1ccc2c(NCCc3ccc(OCCCN4CCCCC4)cc3)ccnc2c1 | 0.00053 µM | 67% @ 1 μM | 52% @ 1 μM | 
2 | Clc1ccc(CCCOCCCN2CCCCC2)cc1 |  |  |  | 13 µM
